Reference: PubChem BioAssay AID485349 (National Center for Advancing Translational Sciences (NCATS), 2010)
The entries are a selection whose mix differs from that of the whole data set. Activity calls are given as the source filed them. Calls follow the shape of the dose curve; as a rule, active = well fitted activation curve with a large enough effect; inconclusive = small, poorly fitted or top-dose-only effect; inactive = no such curve, though single readings can be large or run the other way.

Assay: qHTS Assay for Identifying a Potential Treatment of Ataxia-Telangiectasia; also: % of control where 0% means no effect; nearly all actives have a fitted effect of over 45% in size
Conditions: […] A-T fibroblasts, KAP-1 phosphorylation AlphaLISA, neocarzinostatin DNA damage 30 min before lysis; at 57.5 µM (top of the series)
From the text: NIH Chemical Genomics Center [NCGC] NIH Molecular Libraries Probe Centers Network [MLPCN] MLPCN Grant: MH089030-01 Assay Submitter (PI): Wei Zheng and Yosef Shiloh Ataxia-telangiectasia (A-T) is a devastating and progressive disease for which, there is no cure. Although A-T is a multisystem disease, it is stereotyped characterized by its neurological symptoms such as truncal ataxia, due to cerebellar cortical degeneration of the Purkinje and granule cells. Other symptoms of A-T are telangiectasias (dilated blood vessels), primary immunodeficiency, marked sensitivity to ionizing radiation (IR), chromosomal instability and predisposition to cancer. The underlying genetic cause of A-T is null mutations in the ATM (A-T mutated) gene. ATM is a nuclear serine/threonine kinase that functions as a master regulator of the cellular responses to double strand breaks (DSBs) in the DNA. Upon activation by DSBs, ATM phosphorylates a plethora of down stream targets, including KAP-1 on Ser82452. […] To screen for small molecules that will compensate for the loss of ATM in cells derived from A-T patients, we monitored KAP-1 phosphorylation as a readout for ATM-like activity using an AlphaLISA assay.
qHTS Assay Protocol: Step,Parameter,Value,Description 1. […] Readout, EnVision, EnVision plate reader. […] EnVision protocol for 1536-well AlphaScreen read (30ms excitation, 100ms read), about 10 min/plate.

Row | Structure (SMILES) | activation
1 | CCC(=O)N(c1ccccc1)C1(COC)CCN(CCc2cccs2)CC1 | inactive: -8.2%
2 | CCC(=O)N(c1ccccc1)C1(COC)CCN(CCn2nnn(CC)c2=O)CC1 | inactive: 7.37%
